This is an account of results in ChEMBL document CHEMBL1124886, “Electrophilic alpha-methylene-gamma-lactone and isothiocyanate opioid ligands related to etorphine” (1990).

Sequences of proteins named here, by UniProt entry; tags and fusion partners are left off.
UniProt P79350, whole entry: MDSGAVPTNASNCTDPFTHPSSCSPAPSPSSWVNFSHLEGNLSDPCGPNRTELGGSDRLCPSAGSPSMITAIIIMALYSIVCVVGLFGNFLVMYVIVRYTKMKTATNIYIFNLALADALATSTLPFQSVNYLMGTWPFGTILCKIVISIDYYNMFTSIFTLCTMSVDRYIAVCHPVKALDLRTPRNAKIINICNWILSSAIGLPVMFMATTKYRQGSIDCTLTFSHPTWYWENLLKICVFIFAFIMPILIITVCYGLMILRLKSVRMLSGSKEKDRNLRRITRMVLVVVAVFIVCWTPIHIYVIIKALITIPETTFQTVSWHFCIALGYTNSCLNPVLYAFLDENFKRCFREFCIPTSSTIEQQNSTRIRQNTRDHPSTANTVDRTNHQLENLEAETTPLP

The target in the assay is Mu-type opioid receptor (Bos taurus, UniProt P79350). Briefly: Inhibition of 0.5 nM [3H]- Bremazocine binding to Opioid receptor mu 1 of bovine striatum membrane.
In turn, `CO[C@]12CC[C@@]3(C[C@@H]1C(C)(C)O)[C@H]1Cc4ccc(O)c5c4[C@@]3(CCN1CC1CC1)[C@H]2O5` had an IC50 of 1.4 nM. In other words, the single-digit nanomolar range.

`COc1ccc2c3c1O[C@@H]1C34CCN(CC3CC3)C(C2)[C@]42C=C[C@@]1(OC)C([C@@H](C)N=C=S)C2` (stereo partly specified) displayed a half-inhibitory concentration (IC50) of 434 nM. Turning to `CO[C@]12C=C[C@@]3(CC1[C@H](C)N=C=S)[C@H]1Cc4ccc(O)c5c4[C@@]3(CCN1CC1CC1)[C@H]2O5` (stereo partly specified), the IC50 worked out at 0.32 nM. `CO[C@]12C=C[C@@]3(CC1[C@@H](C)N=C=S)C1Cc4ccc(O)c5c4C3(CCN1CC1CC1)[C@H]2O5` (stereo partly specified): the 50% inhibitory concentration (IC50) was found to be 0.76 nM. The result for `COc1ccc2c3c1O[C@@H]1[C@]34CCN(CC3CC3)[C@H](C2)[C@]42C=C[C@@]1(OC)C([C@H](C)N=C=S)C2` (stereo partly specified) reads 171 nM.

For `C=C1C[C@H]([C@H]2C[C@@]34C=C[C@]2(OC)[C@@H]2Oc5c(O)ccc6c5[C@@]23CCN(CC2CC2)[C@@H]4C6)OC1=O`, the IC50 stood at 1 nM.

What is called IC50 is the concentration at which inhibition is half-maximal. Higher therefore signals weaker potency.
